# Values quoted from earlier work, collected in patent US20120128665A1, “PRESELECTION OF SUBJECTS FOR THERAPEUTIC TREATMENT BASED ON HYPOXIC STATUS” (SYNTA PHARMACEUTICALS CORP., priority 2010, published 2012).
# Protein sequences, listed by entry. Tags and fused reporters are not part of them. Residues count along the entry.
# UniProt P10721, 26-976, species assumed: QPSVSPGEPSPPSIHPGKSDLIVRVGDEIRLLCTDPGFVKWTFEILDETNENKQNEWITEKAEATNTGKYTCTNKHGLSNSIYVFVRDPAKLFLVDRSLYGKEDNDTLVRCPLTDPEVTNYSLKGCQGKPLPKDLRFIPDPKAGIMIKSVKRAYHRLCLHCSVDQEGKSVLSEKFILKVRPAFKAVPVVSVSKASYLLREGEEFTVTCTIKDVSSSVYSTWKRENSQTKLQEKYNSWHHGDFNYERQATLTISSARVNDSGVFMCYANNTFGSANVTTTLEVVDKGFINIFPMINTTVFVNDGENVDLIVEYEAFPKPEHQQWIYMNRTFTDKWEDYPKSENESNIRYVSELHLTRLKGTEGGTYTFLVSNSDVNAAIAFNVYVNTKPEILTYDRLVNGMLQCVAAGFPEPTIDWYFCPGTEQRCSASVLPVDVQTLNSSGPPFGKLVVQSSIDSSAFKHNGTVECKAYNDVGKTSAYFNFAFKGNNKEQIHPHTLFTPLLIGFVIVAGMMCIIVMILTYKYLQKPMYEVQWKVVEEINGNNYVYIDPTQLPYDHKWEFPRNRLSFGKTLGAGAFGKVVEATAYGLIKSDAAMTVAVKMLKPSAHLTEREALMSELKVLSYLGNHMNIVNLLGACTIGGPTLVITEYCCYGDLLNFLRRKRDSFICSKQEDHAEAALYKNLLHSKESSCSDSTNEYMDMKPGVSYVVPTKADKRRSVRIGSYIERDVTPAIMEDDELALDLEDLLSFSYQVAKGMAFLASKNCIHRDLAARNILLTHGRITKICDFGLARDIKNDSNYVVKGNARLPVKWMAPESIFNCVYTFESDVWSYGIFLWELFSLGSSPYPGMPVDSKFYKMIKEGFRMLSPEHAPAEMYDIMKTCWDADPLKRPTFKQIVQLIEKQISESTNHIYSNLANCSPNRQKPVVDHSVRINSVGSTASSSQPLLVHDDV
# Biological target: Kit (Homo sapiens, UniProt P10721)
# Conditions: in vitro; cited from earlier work
substance,measurement,value
Cediranib,ligand-induced autophosphorylation of Kit,inhibited
